The values that follow come from patent US9164075B2, “Glutathione alkylester isotopologue and method for detecting reactive metabolite” (priority 2011, dated 2015).

The conditions of this series: glutathione ethyl ester-d5 used as the trapping agent, rat liver microsomes. As for the experimental part:
NADPH (20 mmol/L, […]) was added to the pre-incubated incubation mixture and a reaction (incubation) was started. The final incubation volume was 1 mL. A sample containing no object compound was used as a control.
After incubation at 37° C. for 60 minutes, a 50 mmol/L aqueous dithiothreitol solution (100 μL, 5 μmol) was added to the incubation mixture, and the resultant mixture was subjected to centrifugation at 10,000 g for 5 minutes. The centrifugation supernatant was added to a solid phase extraction column (OASIS HLB 1 cc, 30 mg) that was pre-washed with 1 mL of methanol and activated with 1 mL of purified water. The column was washed with 1 mL of water and 1 mL of 5% methanol solution, and a reaction product was eluted with 1 mL of methanol. The solvent was removed by evaporation under nitrogen flow, and the residue was dissolved in 150 μL of acetonitrile:water (2:8) to prepare an analysis sample.
An AQCUITY UPLC system (WATERS) was used for separation by chromatography. Aliquots (10 μL) of the prepared analysis sample was injected into an AQCUITY UPLC BEH C18 column (2.1×100 mm, 1.7 μm). The separation by chromatography was performed under gradient conditions shown in the following table at a mobile phase flow rate of 0.5 mL/minute.
The LC column eluate obtained in step 2-1 was introduced into an LTQ XL ion trap mass spectrometer. […]
(Liver microsomes are vesicles of endoplasmic reticulum, rich in cytochrome P450 enzymes.)

SMILES strings stand for the structures.

For `O=C(O)Cc1ccccc1Nc1c(Cl)cccc1Cl` [diclofenac], the “judgement of reactive metabolite formation” value is “positive”.
